{"source": "paper PMC7341468", "about": "(BMC Pharmacology & Toxicology, 2020)", "key": {"[1]": {"settings": "cited from earlier work", "method": "Traditionally, a Cmin ≥ 10 μg/mL is considered appropriate for MRSA infections."}, "serum albumin": {"system": "serum albumin", "settings": "cited from earlier work"}, "[2]": {"settings": "cited from earlier work", "remark": "listed apart in the source"}}, "note": "Like-named read-outs stand apart in the source and are kept apart here.", "data": [{"substance": "teicoplanin", "values": [{"measurement": "Patients with teicoplanin initial Cmin ≥20 μg/mL", "setting": "with factor: Body mass index ≥25, 47/74 patients", "result": "47/74 (63.5%)"}, {"measurement": "Patients with teicoplanin initial Cmin ≥20 μg/mL", "setting": "with factor: Body mass index< 18.5, 59/124 patients", "result": "59/124 (47.6%)"}, {"measurement": "Patients with teicoplanin initial Cmin ≥20 μg/mL", "setting": "with factor: Chronic renal failure, 47/116 patients", "result": "47/116 (40.5%)"}, {"measurement": "Patients with teicoplanin initial Cmin ≥20 μg/mL", "setting": "with factor: Chronic respiratory disease, 14/27 patients", "result": "14/27 (51.9%)"}, {"measurement": "Patients with teicoplanin initial Cmin ≥20 μg/mL", "setting": "with factor: Collagen disease, 25/53 patients", "result": "25/53 (47.2%)"}, {"measurement": "Patients with teicoplanin initial Cmin ≥20 μg/mL", "setting": "with factor: Complicated MRSA infections, 54/99 patients", "result": "54/99 (54.5%)"}, {"measurement": "Patients with teicoplanin initial Cmin ≥20 μg/mL", "setting": "with factor: Diabetes mellitus, 58/112 patients", "result": "58/112 (51.8%)"}, {"measurement": "Patients with teicoplanin initial Cmin ≥20 μg/mL", "setting": "with factor: Heart disease, 111/208 patients", "result": "111/208 (53.4%)"}, {"measurement": "Patients with teicoplanin initial Cmin ≥20 μg/mL", "setting": "with factor: Immunosuppressive therapy, 18/28 patients", "result": "18/28 (64.3%)"}, {"measurement": "Patients with teicoplanin initial Cmin ≥20 μg/mL", "setting": "with factor: Inflammatory bowel disease, 44/89 patients", "result": "44/89 (49.4%)"}, {"measurement": "Patients with teicoplanin initial Cmin ≥20 μg/mL", "setting": "with factor: Intensive care unit stay (> 3 days), 34/98 patients", "result": "34/98 (34.7%)"}, {"measurement": "Patients with teicoplanin initial Cmin ≥20 μg/mL", "setting": "with factor: Liver cirrhosis/chronic hepatic dysfunction, 34/72 patients", "result": "34/72 (47.2%)"}, {"measurement": "Patients with teicoplanin initial Cmin ≥20 μg/mL", "setting": "with factor: MRSA infections, 72/139 patients", "result": "72/139 (51.8%)"}, {"measurement": "Patients with teicoplanin initial Cmin ≥20 μg/mL", "setting": "with factor: Malignant tumor, 99/204 patients", "result": "99/204 (48.5%)"}, {"measurement": "Patients with teicoplanin initial Cmin ≥20 μg/mL", "setting": "with factor: Serum albumin < 2.5 g/dL (median), 79/217 patients", "result": "79/217 (36.4%)"}, {"measurement": "Patients with teicoplanin initial Cmin ≥20 μg/mL", "setting": "with factor: Sex (male), 161/318 patients", "result": "161/318 (50.6%)"}, {"measurement": "Patients with teicoplanin initial Cmin ≥20 μg/mL", "setting": "with factor: Steroid use, 42/85 patients", "result": "42/85 (49.4%)"}, {"measurement": "Patients with teicoplanin initial Cmin ≥20 μg/mL", "setting": "with factor: Surgery within 28 days, 68/158 patients", "result": "68/158 (43.0%)"}, {"measurement": "Patients with teicoplanin initial Cmin ≥20 μg/mL", "setting": "with factor: Total parenteral nutrition, 45/102 patients", "result": "45/102 (44.1%)"}, {"measurement": "Patients with teicoplanin initial Cmin ≥20 μg/mL", "setting": "with factor: Transplantation, 6/8 patients", "result": "6/8 (75.0%)"}, {"measurement": "Patients with teicoplanin initial Cmin ≥20 μg/mL", "setting": "with factor: Ventilator use, 37/90 patients", "result": "37/90 (41.1%)"}, {"measurement": "Patients with teicoplanin initial Cmin ≥20 μg/mL", "setting": "with factor: eGFR≥60 mL/min/1.73 m^2, 164/293 patients", "result": "164/293 (56.0%)"}, {"measurement": "Patients with teicoplanin initial Cmin ≥20 μg/mL", "setting": "without factor: APACHE II score ≥ 15, 213/382 patients", "result": "213/382 (55.8%)"}, {"measurement": "Patients with teicoplanin initial Cmin ≥20 μg/mL", "setting": "without factor: Age (> 65 years), 105/194 patients", "result": "105/194 (54.1%)"}, {"measurement": "Patients with teicoplanin initial Cmin ≥20 μg/mL", "setting": "without factor: Anticancer therapy, 241/465 patients", "result": "241/465 (51.8%)"}, {"measurement": "Patients with teicoplanin initial Cmin ≥20 μg/mL", "setting": "without factor: Body mass index ≥25, 220/438 patients", "result": "220/438 (50.2%)"}, {"measurement": "Patients with teicoplanin initial Cmin ≥20 μg/mL", "setting": "without factor: Body mass index< 18.5, 208/388 patients", "result": "208/388 (53.6%)"}, {"measurement": "Patients with teicoplanin initial Cmin ≥20 μg/mL", "setting": "without factor: Chronic renal failure, 220/396 patients", "result": "220/396 (55.6%)"}, {"measurement": "Patients with teicoplanin initial Cmin ≥20 μg/mL", "setting": "without factor: Chronic respiratory disease, 253/485 patients", "result": "253/485 (52.2%)"}, {"measurement": "Patients with teicoplanin initial Cmin ≥20 μg/mL", "setting": "without factor: Collagen disease, 242/459 patients", "result": "242/459 (52.7%)"}, {"measurement": "Patients with teicoplanin initial Cmin ≥20 μg/mL", "setting": "without factor: Complicated MRSA infections, 213/413 patients", "result": "213/413 (51.6%)"}, {"measurement": "Patients with teicoplanin initial Cmin ≥20 μg/mL", "setting": "without factor: Diabetes mellitus, 209/400 patients", "result": "209/400 (52.3%)"}, {"measurement": "Patients with teicoplanin initial Cmin ≥20 μg/mL", "setting": "without factor: Enhanced high loading dose regimen (conventional regimen), 150/363 patients", "result": "150/363 (41.3%)"}, {"measurement": "Patients with teicoplanin initial Cmin ≥20 μg/mL", "setting": "without factor: Heart disease, 156/304 patients", "result": "156/304 (51.3%)"}, {"measurement": "Patients with teicoplanin initial Cmin ≥20 μg/mL", "setting": "without factor: Immunosuppressive therapy, 249/484 patients", "result": "249/484 (51.4%)"}, {"measurement": "Patients with teicoplanin initial Cmin ≥20 μg/mL", "setting": "without factor: Inflammatory bowel disease, 223/423 patients", "result": "223/423 (52.7%)"}, {"measurement": "Patients with teicoplanin initial Cmin ≥20 μg/mL", "setting": "without factor: Intensive care unit stay (> 3 days), 233/414 patients", "result": "233/414 (56.3%)"}, {"measurement": "Patients with teicoplanin initial Cmin ≥20 μg/mL", "setting": "without factor: Liver cirrhosis/chronic hepatic dysfunction, 233/440 patients", "result": "233/440 (53.0%)"}, {"measurement": "Patients with teicoplanin initial Cmin ≥20 μg/mL", "setting": "without factor: MRSA infections, 195/373 patients", "result": "195/373 (52.3%)"}, {"measurement": "Patients with teicoplanin initial Cmin ≥20 μg/mL", "setting": "without factor: Malignant tumor, 168/308 patients", "result": "168/308 (54.5%)"}, {"measurement": "Patients with teicoplanin initial Cmin ≥20 μg/mL", "setting": "without factor: Serum albumin < 2.5 g/dL (median), 188/295 patients", "result": "188/295 (63.7%)"}, {"measurement": "Patients with teicoplanin initial Cmin ≥20 μg/mL", "setting": "without factor: Sex (male), 106/194 patients", "result": "106/194 (54.6%)"}, {"measurement": "Patients with teicoplanin initial Cmin ≥20 μg/mL", "setting": "without factor: Steroid use, 225/427 patients", "result": "225/427 (52.7%)"}, {"measurement": "Patients with teicoplanin initial Cmin ≥20 μg/mL", "setting": "without factor: Surgery within 28 days, 199/354 patients", "result": "199/354 (56.2%)"}, {"measurement": "Patients with teicoplanin initial Cmin ≥20 μg/mL", "setting": "without factor: Total parenteral nutrition, 222/410 patients", "result": "222/410 (54.1%)"}, {"measurement": "Patients with teicoplanin initial Cmin ≥20 μg/mL", "setting": "without factor: Transplantation, 261/504 patients", "result": "261/504 (51.8%)"}, {"measurement": "Patients with teicoplanin initial Cmin ≥20 μg/mL", "setting": "without factor: Ventilator use, 230/422 patients", "result": "230/422 (54.5%)"}, {"measurement": "Patients with teicoplanin initial Cmin ≥20 μg/mL", "setting": "without factor: eGFR≥60 mL/min/1.73 m^2, 103/219 patients", "result": "103/219 (47.0%)"}, {"measurement": "Patients in whom a Cmin 15–30 μg/mL was obtained", "setting": "[1]; 600 mg at 12-h intervals for five doses (total dose 3000 mg), mean body weight approximately 50 kg", "result": 68, "unit": "%"}, {"measurement": "Mean Cmin", "setting": "[1]; 600 mg at 12-h intervals for five doses (total dose 3000 mg)", "result": 20000, "unit": "ng/mL"}, {"measurement": "Patients in whom target Cmin ≥ 20 μg/mL was obtained", "setting": "[1]; 600 mg at 12-h intervals for five doses, post-hoc analysis", "result": "less than half of the patients"}, {"measurement": "Mean Cmin on days 3–7 in successful cases", "setting": "[1]; patients with haematological malignancy, ref 11 (Byrne et al.)", "result": 19600, "unit": "ng/mL"}, {"measurement": "Teicoplanin bound to serum albumin", "setting": "serum albumin", "result": "Approximately 90%"}, {"measurement": "Half-life", "setting": "[2]", "result": "83 to 168", "unit": "h"}, {"measurement": "Repeated administration required to reach 93% of the concentration at steady state", "setting": "[2]", "result": 14, "unit": "days"}]}]}
